Results as given in patent publication US8143250B2, “6-7,dialkoxy quinazoline derivatives useful for treatment of cancer related disorders” (priority 2008, dated 2012).
“And” between values parts separate entries of the source, which are not always exact repeats. Equal values may be shown once. Where a name gives a salt, the structure may show the parent alone.

Tested on: lung cancer
Experiment: Curative effect from in vivo studies in nude mice
Conditions: summary of the study

Question: How did the “curative effect (ratio of animals cured)” value turn out when `C#Cc1cccc(Nc2ncnc3cc(OCCOC)c(OCCOC)cc23)c1` [Erlotinib HCl, N-(3-Ethylnylphenyl)-6,7-bis(2-methoxyethoxy)-4-quinazolinamine, reference compound] was run?
Answer: Its value is 50-60% and 40-60%.
